Legend:
[1] = system: Pectobacterium atrosepticum; experiment: Activity of Erwinia carotovora subsp. atroseptica DSM 30184 beta-lactamase CAR-1
[2] = system: Pectobacterium atrosepticum; experiment: Ratio of Kcat to Km for Erwinia carotovora subsp. atroseptica DSM 30184 beta-Lactamase CAR-1
[3] = system: Bradyrhizobium japonicum; experiment: Ratio of Kcat to Km for Bradyrhizobium japonicum beta-Lactamase BJP-1

| SMILES | Km [1] [µM] | kcat [1] [s⁻¹] | kcat/Km [2] [×10² /M/s] | kcat/Km [3] |
| --- | --- | --- | --- | --- |
| C[C@@H](O)[C@H]1C(=O)N2C(C(=O)O)=C(S[C@@H]3CN[C@H](C(=O)N(C)C)C3)[C@H](C)[C@H]12 | > 990 | > 1 | 9.6 | 8.3 ×10⁵ /M/s |
| CC(=O)OCC1=C(C(=O)O)N2C(=O)[C@@H](NC(=O)Cc3cccs3)[C@H]2SC1 |  |  |  | 5.8 ×10⁵ /M/s |
| CC(C)(O/N=C(\C(=O)N[C@@H]1C(=O)N2C(C(=O)[O-])=C(C[n+]3ccccc3)CS[C@H]12)c1csc(N)n1)C(=O)O |  |  |  | 4.3 ×10³ /M/s |
